Values quoted from earlier work in EP0135714B1, “Sustained release compositions for biologically active materials” (MELAMINE CHEMICALS, INC., priority 1983, dated 1985).

Conditions: pH 7; cited from earlier work

Diammonium Phosphate
Solubility (g/100g): 131 (at 15°) g/100g
